From US20110165611A1, “DUAL MODALITY DETECTION OF APOPTOSIS” (priority 2008, published 2011)

Tests used:
apoptotic liver = experiment: Gamma imaging in murine liver apoptosis model (anti-Fas); assay type: in vivo; details: mouse, i.v., radioactive species in bladder
From the text: We used a murine liver apoptosis model to evaluate whether chelate 4 could be used to image apoptosis in vivo. F. G. Blankenberg, J. F. Tait, R. E. Davis, L. Naumovski, K. Ohtsuki, S. Kopiwoda, M. J. Abrams, M. Darkes, R. C. Robbins, H. T. Maecker, H. W. Strauss, Proc. Natl. Acad. Sciences USA 1998, 95, 6349-6354; F. G. Blankenberg, P. D. Katsikis, J. F. Tait, R. E. Davis, L. Naumovski, K. Ohtsuki, S. Kopiwoda, M. J. Abrams, H. W. Strauss, J. Nucl. Med. 1999, 40, 184-191. Male Balb/c mice (10-12 weeks old, weight 20-25 g) were injected intravenously with an anti-Fas monoclonal antibody (10 μg/mouse) to induce apoptosis in the liver. Two hours later, ^99mTc-chelate 4 [300 μCi (11.1 MBq), 20 peptide in 0.2 ml] was injected intravenously. Radionuclide imaging was acquired 120 min after the injection of 4.
Gamma Imaging and Biodistribution For γ-imaging study, two male Balb/c mice (10-12 weeks old, weight 20-25 g) (Charles River, Wilmington, Mass.) were injected intravenously with a purified anti-Fas monoclonal antibody (10 μg/mouse) (Pharmingen, San Diego, Calif.). […] The organs of interest were excised and weighed, and radioactivity was counted in a gamma counter. The stomach and intestines were emptied of food contents prior to radioactivity measurements. The percentage of injected dose per gram (% ID/g) was calculated by dividing the % ID/organ by the weight of the tissue.

liver = experiment: Radio-HPLC analysis of liver extracts from mice injected 99mTc-chelate 4; assay type: in vivo, mouse; details: 2 h after i.v. injection
Description: Two hours after intravenous injection of 4 (1 mCi, 80 μg, 0.2 mL) into a mouse treated with […] and a mouse treated with PBS 2 h prior to the injection of the radiotracer, mice were killed and livers were removed and ground at 4° C. using a Dounce homogenizer (Polytron, […], Switzerland) in 5 mL of acetonitrile/methanol (3:1, v/v). After sequential high-speed centrifugation (100,000 g for 20 min) to remove cellular debris and insoluble proteins, the supernatants were concentrated and injected into the radio-HPLC system (condition: solvent A, 0.01 M NH4OAc in water; solvent B, acetonitrile; gradient: 0-80% B in A over 40 min, flow rate 1.0 mL/min, C18 4.6×250 mm, 5-μm column).

Substance: Ac-DEVD-R110-D-SAAC-^99mTc(CO)3 [^99mTc-chelate 4]
- Route of clearance (apoptotic liver): cleared through the renal route
- Ratio of area integrals of peaks R110-D-SAAC-99mTc(CO)3 and 4 (liver; PBS-treated liver): 0.20
- Ratio of area integrals of peaks R110-D-SAAC-99mTc(CO)3 and 4 (liver; anti-Fas-treated liver): 1.48
